Experimental data published in paper PMC8249445, “Complex effects of macrolide venturicidins on bacterial F-ATPases likely contribute to their action as antibiotic adjuvants” (Scientific Reports, 2021).

Sequences of proteins named here, by UniProt entry; tags and fusion partners are left off. A change or cut given only in a name is not applied to a line headed by its entry.
UniProt P68699: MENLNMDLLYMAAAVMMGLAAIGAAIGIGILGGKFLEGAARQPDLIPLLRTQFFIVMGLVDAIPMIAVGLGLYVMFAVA

Molecular target: T1, FOF1-ATPase of WT E. coli membranes (Escherichia coli, UniProt P68699)
T1 construct: To express haploid levels of EcFOF1 containing WT-ε or ε88-stop; expressed in transfected cells; host or cells: E. coli strain XH1 (chromosomal atpC deletion) carrying pMBε1; inverted membrane vesicles
Type: biochemical
Conditions: alone (Fig. 2A), early inhibition, read-out: VentA at half-max. inhibition (Ki)

## venturicidin
  Ki: 700 nM
